These results are taken from patent publication US20150196531A1, “Methods and Compositions For Treating Sleep-Related Breathing Disorders” (Sunovion Pharmaceuticals Inc., priority 2007, published 2015).

Sequences of proteins named here, by UniProt entry; tags and fusion partners are left off.
UniProt P23975, whole entry: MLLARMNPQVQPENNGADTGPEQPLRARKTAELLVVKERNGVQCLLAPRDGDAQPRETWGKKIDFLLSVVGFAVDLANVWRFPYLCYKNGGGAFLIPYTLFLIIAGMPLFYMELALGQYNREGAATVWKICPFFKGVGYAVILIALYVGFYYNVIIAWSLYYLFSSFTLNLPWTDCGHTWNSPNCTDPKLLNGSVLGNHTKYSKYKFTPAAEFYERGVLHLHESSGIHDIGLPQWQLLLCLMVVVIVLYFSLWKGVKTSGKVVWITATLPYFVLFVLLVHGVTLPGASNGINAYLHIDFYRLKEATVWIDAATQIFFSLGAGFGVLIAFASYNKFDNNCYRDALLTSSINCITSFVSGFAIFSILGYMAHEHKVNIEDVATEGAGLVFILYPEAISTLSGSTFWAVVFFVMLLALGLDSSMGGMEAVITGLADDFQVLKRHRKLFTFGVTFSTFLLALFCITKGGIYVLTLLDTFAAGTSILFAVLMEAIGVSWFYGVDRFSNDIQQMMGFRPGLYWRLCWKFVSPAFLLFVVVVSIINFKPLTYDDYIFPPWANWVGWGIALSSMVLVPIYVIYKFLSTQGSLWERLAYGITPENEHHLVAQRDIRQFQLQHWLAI
UniProt P31645, whole entry: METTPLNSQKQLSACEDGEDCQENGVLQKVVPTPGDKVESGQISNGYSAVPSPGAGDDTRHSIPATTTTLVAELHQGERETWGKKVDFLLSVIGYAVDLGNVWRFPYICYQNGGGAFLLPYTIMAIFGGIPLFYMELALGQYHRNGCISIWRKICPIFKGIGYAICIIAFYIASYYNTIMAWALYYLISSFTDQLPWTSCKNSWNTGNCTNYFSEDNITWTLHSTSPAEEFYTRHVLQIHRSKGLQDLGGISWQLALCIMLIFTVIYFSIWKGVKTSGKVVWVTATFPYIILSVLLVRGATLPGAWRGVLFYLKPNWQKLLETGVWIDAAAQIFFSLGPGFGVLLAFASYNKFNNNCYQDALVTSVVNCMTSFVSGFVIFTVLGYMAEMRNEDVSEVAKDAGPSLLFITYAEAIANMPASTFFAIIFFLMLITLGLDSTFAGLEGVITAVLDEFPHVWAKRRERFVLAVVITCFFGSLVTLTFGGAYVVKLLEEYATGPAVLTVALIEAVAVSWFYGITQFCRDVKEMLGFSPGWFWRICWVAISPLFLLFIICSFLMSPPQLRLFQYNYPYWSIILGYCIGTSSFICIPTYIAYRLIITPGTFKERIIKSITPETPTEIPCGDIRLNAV
UniProt Q01959, whole entry: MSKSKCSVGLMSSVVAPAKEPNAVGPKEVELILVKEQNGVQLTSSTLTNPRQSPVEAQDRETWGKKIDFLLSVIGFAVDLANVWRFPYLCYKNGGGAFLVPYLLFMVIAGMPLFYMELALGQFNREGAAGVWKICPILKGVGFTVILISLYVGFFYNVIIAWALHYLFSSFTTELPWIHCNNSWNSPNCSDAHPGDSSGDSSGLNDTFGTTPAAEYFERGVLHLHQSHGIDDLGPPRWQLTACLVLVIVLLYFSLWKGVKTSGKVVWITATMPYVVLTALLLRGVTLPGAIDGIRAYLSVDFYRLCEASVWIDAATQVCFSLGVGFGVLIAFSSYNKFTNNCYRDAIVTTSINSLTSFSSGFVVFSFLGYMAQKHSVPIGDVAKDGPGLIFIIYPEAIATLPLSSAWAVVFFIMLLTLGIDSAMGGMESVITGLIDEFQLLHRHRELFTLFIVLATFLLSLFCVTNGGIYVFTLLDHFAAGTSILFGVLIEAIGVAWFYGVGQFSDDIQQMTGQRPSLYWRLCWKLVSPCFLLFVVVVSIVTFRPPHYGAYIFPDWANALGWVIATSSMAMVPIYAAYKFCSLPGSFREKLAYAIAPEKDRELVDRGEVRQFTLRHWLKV
UniProt P23977, whole entry: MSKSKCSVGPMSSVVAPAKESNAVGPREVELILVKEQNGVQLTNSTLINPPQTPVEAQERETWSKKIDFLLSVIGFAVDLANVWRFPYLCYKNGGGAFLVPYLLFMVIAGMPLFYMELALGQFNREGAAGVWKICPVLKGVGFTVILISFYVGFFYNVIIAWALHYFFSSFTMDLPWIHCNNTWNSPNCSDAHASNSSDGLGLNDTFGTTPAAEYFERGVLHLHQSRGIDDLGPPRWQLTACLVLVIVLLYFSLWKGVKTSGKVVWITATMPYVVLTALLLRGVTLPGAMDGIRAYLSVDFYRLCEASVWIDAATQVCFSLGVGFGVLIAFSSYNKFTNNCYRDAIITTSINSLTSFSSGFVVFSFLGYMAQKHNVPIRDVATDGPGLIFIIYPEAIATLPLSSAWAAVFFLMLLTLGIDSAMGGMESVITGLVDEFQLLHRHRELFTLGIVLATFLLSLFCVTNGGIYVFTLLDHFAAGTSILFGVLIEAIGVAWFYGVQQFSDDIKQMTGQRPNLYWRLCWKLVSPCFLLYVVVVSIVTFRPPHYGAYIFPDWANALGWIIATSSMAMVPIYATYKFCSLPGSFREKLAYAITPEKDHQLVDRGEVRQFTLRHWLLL

The target of test [1] is recombinant human norepinephrine transporter expressed in MDCK cells (Homo sapiens, UniProt P23975). As to conditions: read-out: Inhibition of monoamine uptake, Human NE, IC50, [3H]Norepinephrine uptake.
In test [2] the target is recombinant human serotonin transporter expressed in HEK-293 cells (Homo sapiens, UniProt P31645). As to conditions: read-out: Inhibition of monoamine uptake, Human 5-HT, IC50.
In test [3] the target is T1, cloned human norepinephrine receptor expressed in MDCK cells (NE transporter) (Homo sapiens, UniProt P23975).
T1 construct: expressed in transfected cells; host or cells: MDCK
In words: Radioligand binding assay, [125I]-RTI-55. The following applies: [125I]-RTI-55, MDCK cells. As for the experimental part:
(§1) The IC50 values (and calculated Ki values) for inhibition of the binding of [^125I]-RTI-55 to the cloned human norepinephrine receptor expressed in MDCK cells were determined according to Shearman L P, McReynolds A M, Zhou F C, Meyer J S, “Relationship between [125I]RTI-55-labeled cocaine binding sites and the serotonin transporter in rat placenta,” American Journal of Physiology 275: C1621-9 (1998).

In test [4] the target is T2, cloned human serotonin receptor expressed in HEK293 cells (5-HT transporter) (Homo sapiens, UniProt P31645).
T2 construct: expressed in transfected cells; host or cells: HEK293
In words: Radioligand binding assay, [3H]-paroxetine. As for the experimental part:
as §1

In test [5] the target is recombinant human dopamine transporter expressed in CHO-K1 cells (Homo sapiens, UniProt Q01959). The following applies: read-out: Inhibition of monoamine uptake, Human DA, IC50.
The target in test [6] is T3, dopamine uptake, rat reuptake transporter (synaptosomes from male Wistar rat striatum) (Rattus norvegicus, UniProt P23977).
T3 construct: synaptosomes isolated in a 0.32 M sucrose buffer from a male Wistar rat striatum; from tissue; host or cells: male Wistar rat striatum synaptosomes
In words: Dopamine functional uptake assay for rat reuptake transporter (synaptosomes). Type of test: biochemical. The following applies: [3H]-dopamine uptake, read-out: Inhibition of monoamine uptake, Rat DA, IC50. As for the experimental part: Quantification of dopamine uptake was performed using synaptosomes isolated in a 0.32 M sucrose buffer from a male Wistar rat striatum. The uptake of radiolabelled dopamine by synaptosomes (20 μg of proteins/point) was allowed by incubating them for 15 minutes at 37° C. in the presence of test compounds and [^3H]-dopamine (0.1 μCi/point). The experiment was performed in a deep well.
This incubation buffer was oxygenated for 5 minutes before incubation.
See, Jankowsky et al., “Characterization of sodium-dependent [^3H]GBR-12935 binding in brain: a radioligand for selective labeling of the dopamine transport complex,” J. Neurochem. 46:1272-1276 (1986).

For `CN(C)CC(c1ccc(O)cc1)C1(O)CCCCC1` (racemic) [Racemic O-desmethylvenlafaxine, O-desmethylvenlafaxine], the half-inhibitory concentration (IC50) in test [1] came to 1.35 µM; in test [2] it was 0.076 µM.
Turning to `CN(C)CC(c1ccc(O)cc1)C1(O)CCCCC1` (single isomer, unassigned; (+)) [(+)-O-desmethylvenlafaxine], the IC50 in test [1] was 1.92 µM; in test [2], 0.023 µM; in test [3] (read-out: IC50 for inhibition of specific binding, NE transporter) it was 10.6 µM; in test [4] (read-out: IC50 for inhibition of specific binding, 5-HT transporter) it was 0.235 µM. Moreover, the Ki in test [3] (calculated Ki, read-out: (Ki) for inhibition of specific binding, NE transporter) is 10.5 µM; in test [4] (calculated Ki, read-out: (Ki) for inhibition of specific binding, 5-HT transporter), 0.0383 µM.
On to `CN(C)CC(c1ccc(O)cc1)C1(O)CCCCC1` (single isomer, unassigned; (-)) [(−)-O-desmethylvenlafaxine], for which the IC50 in test [1] was determined as 0.385 µM; in test [2], 0.062 µM; in test [5], 5.39 µM.
Regarding `COc1ccc(C(CN(C)C)C2(O)CCCCC2)cc1` (stereo not drawn) [Venlafaxine, reference compound], the IC50 in test [6] is 7 µM.
